The target of one assay is T1, XIAP BIR3 (Homo sapiens, UniProt P98170).
T1 construct: covering amino acids 241 to 356; XIAP BIR3; made in house; host or cells: E. coli
Briefly: XIAP BIR3 binding assay (DELFIA), displacement of SMAC peptide. The protocol: (§1) Biological Methods XIAP BIR3 and cIAP1 BIR3 Binding Assays (DELFIA)
(§2) Peptide […]-Lys(Biotin), representing the N-terminus of mature human SMAC (SMAC peptide), was used as interaction partner in the protein-peptide interaction assay.
(§3) BIR3 domains (10 nM) were incubated with SMAC peptide (10 nM) in Assay Buffer (50 mM Tris, 120 mM NaCl, 0.1% BSA, 1 mM DTT, 0.05% TritonX100) for one hour at room temperature in the presence of inhibitiory compounds. The assay mixture was transferred to a strepatvidin coated plate and incubated for one hour at room temperature to allow binding of the biotinylated peptide and associated BIR3 domains to the plate. After several washing steps Eu labeled anti-GST antibody (e.g. Perkin Elmer DELFIA Eu-N1-antiGST AD0250) was added to detect BIR3 domain-SMAC peptide interactions according to Perkin Elmer's instructions. […] Time resolved Europium fluoresecence was measured in a Wallac Victor using Standard assay settings.
(§4) DELFIA assay results were plotted against compound concentrations and Software GraphPad Prizm was used to calculate half maximal inhibitory concentrations (IC50 values).

The chains behind the UniProt entries cited, without tags or fusion partners. Residues count along the entry.
UniProt P98170, 241-356: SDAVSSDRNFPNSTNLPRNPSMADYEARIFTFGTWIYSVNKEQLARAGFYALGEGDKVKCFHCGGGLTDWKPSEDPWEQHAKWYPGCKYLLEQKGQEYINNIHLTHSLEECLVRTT
UniProt Q13490, 256-363: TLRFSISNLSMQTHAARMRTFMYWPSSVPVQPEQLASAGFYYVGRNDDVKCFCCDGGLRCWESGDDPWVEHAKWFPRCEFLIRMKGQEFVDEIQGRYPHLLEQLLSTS

The target in the next assay is T2, cIAP1 BIR3 (Homo sapiens, UniProt Q13490).
T2 construct: covering amino acids 256 to 363; cIAP1 BIR3; made in house; host or cells: E. coli
The assay can be described thus: cIAP1 BIR3 binding assay (DELFIA), displacement of SMAC peptide. As to the method:
as §1, §2, §3, §4

What is called IC50 is the concentration at which inhibition is half-maximal. Read a low IC50 as greater potency.

Take `CNC(C)C(=O)Nc1ccc(-c2c(-c3ccncc3)nc3cc(C)ccn23)c(C#Cc2ccc3ncccc3c2)n1` (centres unmarked) [Example 27, 2-(methylamino)-N-[5-(7-methyl-2-pyridin-4-ylimidazo[1,2-a]pyridin-3-yl)-6-(2-quinolin-6-ylethynyl)pyridin-2-yl]propanamide]: the IC50 on XIAP BIR3 was determined as 79 nM; at cIAP1 BIR3 it was 1 nM.

The values are drawn from patent US8859541B2, “6-alkynylpyridines” (Boehringer Ingelheim International GmbH, priority 2012, dated 2014).
